High-throughput results deposited in PubChem by Broad Institute.
Yeast UUG start – modulators of start codon recognition fidelity in yeast; S. cerevisiae UUG-firefly luciferase reporter, luminescence/redox ratio; AID 602363; 350,000 tested, 0.13% active; activity score, % at 18.7 µM;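 active = replicate mean at a twofold rise or more, about +100% in these data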;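 also: firefly luciferase made from a UUG start codon reports start codon fidelity; reporter light over untreated wells divided by growth signal over untreated wells; some hits fall short of that in this replicate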
FGF22 binding – FGF22 (human) thermal shift binding. Q9HCT0. recombinant FGF22 thermal shift, SYPRO orange fluorescence; percent of sucrose octasulfate shift, DMSO zero. activity (Tm shift, normalised), % at 9.99 µM. actives 1.5% (n = 340,000). AID 651658;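 active = mean Tm shift, scaled 0 neutral to 100 positive control, at about 1.3% or above, every replicate too, limit read from the data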
S100A4 inh HTS – inhibitors of human S100A4 binding to myosin IIA peptide; P26447; inhibition, % at 10.7 µM; S100A4/TAMRA-MyoIIA peptide fluorescence polarization; actives 0.14% (n = 360,000);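 active = mean inhibition of at least 70% across replicates, with every replicate also reaching that level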
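Test system: S100A4 monomer protein; Medium: HEPES pH 7.2 with CaCl2, KCl, NaCl, DTT, Triton; Probe or stimulus: TAMRA-labelled myosin IIA heavy-chain peptide probe, 5 nM; Doses: one dose per compound; Times: polarization read 5 min after assay mix addition, stable 5–60 min; Benchmarks: neutral control DMSO, positive control TFP.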
ERp5 inh – inhibitors of human ERp5 | ERp5 insulin aggregation, absorbance 650 nm, 90 min | inhibition, % at 9.99 µM | actives 0.05% (n = 350,000) | AID 651711;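 active = mean replicate inhibition above about 25%, with every replicate also reaching it, limit read from the data, passing the limit was not always enough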
PDI inh – PDI (human) enzyme inhibition; P07237; PDI insulin aggregation turbidity, A650, 90 min; inhibition, % at 10 µM; actives 0.052% (n = 350,000); AID 588391;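 active = mean inhibition across replicates of 30% or more, whatever share of single replicates reach that level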
SIRT5 inh – inhibitors of human sirtuin-5 desuccinylase. Q9NXA8. Purified SirT5, succinyl-peptide AMC, trypsin-coupled fluorescence. inhibition, % at 15 µM. actives 1.1% (n = 330,000). AID 652115; in the data active = inhibition above about 15%
An asterisk follows results filed as active. Rows were chosen to be rich in hits. Some 2.2% of all compounds tested hit in one or more screens of this group.

Screening Cc1nn(-c2ccccc2)c2sc(C(=O)OCn3nnc4ccccc4c3=O)cc12 returned Yeast UUG start -22, FGF22 binding 0, S100A4 inh HTS 1, ERp5 inh 0, PDI inh -18 and SIRT5 inh 17*.
C/C=C/c1ccc([C@@H]2[C@H]3CN(S(=O)(=O)c4ccc(F)cc4)CCCCN3[C@H]2CO)cc1 was read as Yeast UUG start 4, FGF22 binding 0, S100A4 inh HTS -24, ERp5 inh 2 and SIRT5 inh 16*.
`O=S(=O)(c1ccccc1)N1CCCCN2[C@@H](CO)[C@H](c3ccc(-c4ccccc4F)cc3)[C@@H]2C1` gave Yeast UUG start -3, FGF22 binding 0, ERp5 inh 0 and SIRT5 inh -2.
Screening O=S(=O)(c1ccc(F)cc1)N1CCCCN2[C@H](CO)[C@@H](c3ccc(-c4ccccc4F)cc3)[C@H]2C1 returned Yeast UUG start -5, FGF22 binding 0, S100A4 inh HTS 2, ERp5 inh 5 and SIRT5 inh 22*.
COc1ccccc1C#Cc1ccc2c(c1)[C@@H]1[C@@H](CCN1S(=O)(=O)c1ccc(F)cc1)[C@@H](CO)N2 was read as S100A4 inh HTS -1, ERp5 inh 0 and SIRT5 inh 10.
`C[n+]1ccc(/C=C/c2c[nH]c3ccc(F)cc23)cc1` gave Yeast UUG start -7, FGF22 binding 0, S100A4 inh HTS -1, ERp5 inh 2, PDI inh -13 and SIRT5 inh 26*.
For Cn1cc(/C=C/c2cc[n+](C)cc2)c2cc(F)ccc21 the results were Yeast UUG start 3, S100A4 inh HTS 0, ERp5 inh 14, PDI inh 9 and SIRT5 inh 11.
CO[C@@H]1CN(C)C(=O)c2ccc(NC(C)=O)cc2OC[C@@H](C)N(S(=O)(=O)c2cn(C)cn2)C[C@@H]1C was read as Yeast UUG start 12, FGF22 binding 0, S100A4 inh HTS 6, ERp5 inh -1 and SIRT5 inh -2.
For O=C(C[C@@H]1CC[C@H](NS(=O)(=O)c2ccc(F)cc2)[C@H](CO)O1)NCc1ccccc1F the results were S100A4 inh HTS 4, ERp5 inh -2 and SIRT5 inh 1.
For CCCc1nc2sc3c(c2c(=O)[nH]1)CCCC3 the results were FGF22 binding 43*, S100A4 inh HTS 0, ERp5 inh -3, PDI inh 3 and SIRT5 inh -4.
Screening COCc1nc2sc3c(c2c(=O)[nH]1)CCCC3 returned PDI inh -3.
CN(C)c1ccc(/C=C/c2cccc[n+]2[O-])cc1 was read as Yeast UUG start -21, FGF22 binding 0, S100A4 inh HTS -2, ERp5 inh -1, PDI inh 3 and SIRT5 inh 0.
For CN(C)c1ccc(/C=C/c2ccc3c4ccccc4ccc3[n+]2-c2ccccc2)cc1 the results were Yeast UUG start 95, FGF22 binding 0, S100A4 inh HTS 156*, ERp5 inh 13, PDI inh -15 and SIRT5 inh 1.
C[C@H]1[C@@H](Cc2cc(Cl)cc(Cl)c2)N(c2ccccc2)c2ccccc2CN1Cc1ccccc1 was read as FGF22 binding 0, S100A4 inh HTS 9, ERp5 inh 0 and SIRT5 inh -1.
For COc1ccc(N2c3ccccc3CN(Cc3ccccc3)CC2Cc2cc(OC)c(OC)c(OC)c2)cc1 (stereo unspecified) the results were Yeast UUG start -3, FGF22 binding 44*, S100A4 inh HTS -5, ERp5 inh -1 and PDI inh 5.
For O=C(c1cccc(S(=O)(=O)N2CCOCC2)c1)N1CCN(S(=O)(=O)c2cccc([N+](=O)[O-])c2)CC1 the results were Yeast UUG start 12, S100A4 inh HTS -4, ERp5 inh 2, PDI inh -9 and SIRT5 inh -3.
`O=[N+]([O-])c1cccc(S(=O)(=O)N2CCN(S(=O)(=O)N3CCOCC3)CC2)c1` gave Yeast UUG start -10, FGF22 binding 0, S100A4 inh HTS -1, ERp5 inh 7, PDI inh 0 and SIRT5 inh 16*.
Screening CCCNC(=O)N1CC2(C1)CN(C(=O)CCC)[C@@H](CO)c1[nH]c3cc(OC)ccc3c12 returned FGF22 binding 0.
For C[C@H](CO)N1C[C@H](C)[C@H](CN(C)C)Oc2ccc(NS(=O)(=O)c3ccccc3)cc2CC1=O the results were Yeast UUG start 5, FGF22 binding 0, S100A4 inh HTS 95*, ERp5 inh -1 and SIRT5 inh 5.
Screening Cc1noc(C)c1S(=O)(=O)Nc1ccc2c(c1)CC(=O)N([C@H](C)CO)C[C@H](C)[C@@H](CN(C)Cc1ccc(C(=O)O)cc1)O2 returned FGF22 binding 0, S100A4 inh HTS 53, ERp5 inh -7 and SIRT5 inh 25*.
Screening C[C@H](CO)N1C[C@H](C)[C@H](CN(C)S(C)(=O)=O)Oc2ccc(NS(=O)(=O)c3ccccc3)cc2CC1=O returned Yeast UUG start -4, FGF22 binding 0, S100A4 inh HTS -8, ERp5 inh -13 and SIRT5 inh -7.
For C[C@@H]1CN([C@H](C)CO)C(=O)Cc2cc(NS(=O)(=O)c3ccccc3)ccc2O[C@@H]1CN(C)Cc1ccccc1 the results were Yeast UUG start -4, FGF22 binding 0, S100A4 inh HTS 79*, ERp5 inh 8 and SIRT5 inh 4.
`C[C@H](CO)N1C[C@H](C)[C@@H](CN(C)Cc2ccc(-c3ccccc3)cc2)Oc2ccc(NS(=O)(=O)c3ccccc3)cc2CC1=O` gave Yeast UUG start 8, FGF22 binding -1, S100A4 inh HTS -2, ERp5 inh 1 and SIRT5 inh 18*.
For Cc1noc(C)c1S(=O)(=O)Nc1ccc2c(c1)CC(=O)N([C@@H](C)CO)C[C@H](C)[C@H](CN(C)Cc1ccccc1)O2 the results were Yeast UUG start -7, FGF22 binding 0, S100A4 inh HTS 3, ERp5 inh 0 and SIRT5 inh -4.
For C[C@@H]1CN([C@H](C)CO)C(=O)Cc2cc(NS(=O)(=O)c3ccccc3)ccc2O[C@H]1CN(C)Cc1ccccc1 the results were Yeast UUG start -17, FGF22 binding 0, S100A4 inh HTS 24, ERp5 inh 11 and SIRT5 inh 4.
Screening CC(C)CC#Cc1ccc2c(c1)O[C@H](CN(C)C(=O)Cc1cccnc1)[C@@H](C)CN([C@H](C)CO)S2(=O)=O returned Yeast UUG start -6, FGF22 binding 0, S100A4 inh HTS -2, ERp5 inh 1 and SIRT5 inh 3.
COc1ccc2c3c(n(C)c2c1)[C@H](CO)N(C(=O)CN(C)C)CC31CN(S(C)(=O)=O)C1 was read as FGF22 binding 0, S100A4 inh HTS 6 and ERp5 inh -5.

Filtered by structure, the compounds so far with two or more sulfur atoms.
For O=C(c1cccc(S(=O)(=O)N2CCOCC2)c1)N1CCN(S(=O)(=O)c2cccc([N+](=O)[O-])c2)CC1 the results were Yeast UUG start 12, S100A4 inh HTS -4, ERp5 inh 2, PDI inh -9 and SIRT5 inh -3.
`O=[N+]([O-])c1cccc(S(=O)(=O)N2CCN(S(=O)(=O)N3CCOCC3)CC2)c1` gave Yeast UUG start -10, FGF22 binding 0, S100A4 inh HTS -1, ERp5 inh 7, PDI inh 0 and SIRT5 inh 16*.
Screening C[C@H](CO)N1C[C@H](C)[C@H](CN(C)S(C)(=O)=O)Oc2ccc(NS(=O)(=O)c3ccccc3)cc2CC1=O returned Yeast UUG start -4, FGF22 binding 0, S100A4 inh HTS -8, ERp5 inh -13 and SIRT5 inh -7.
